The source of these data is patent US7510845B2, “Assay employing G protein-coupled receptor expressed in dorsal root ganglia” (California Institute of Technology, priority 2000, dated 2009).

The target in the test is T1, MRGA1 (Mus musculus, UniProt Q91WW5).
T1 construct: cDNAs encoding eight full-length variants of Mrg receptors (mMrgA1-8) are provided; expressed in transfected cells; host or cells: HEK293-Galpha15 (A1) or HEK293 lacking Galpha15 (A4), transient transfection with FuGENE 6
T1 sequence (Q91WW5 1-304): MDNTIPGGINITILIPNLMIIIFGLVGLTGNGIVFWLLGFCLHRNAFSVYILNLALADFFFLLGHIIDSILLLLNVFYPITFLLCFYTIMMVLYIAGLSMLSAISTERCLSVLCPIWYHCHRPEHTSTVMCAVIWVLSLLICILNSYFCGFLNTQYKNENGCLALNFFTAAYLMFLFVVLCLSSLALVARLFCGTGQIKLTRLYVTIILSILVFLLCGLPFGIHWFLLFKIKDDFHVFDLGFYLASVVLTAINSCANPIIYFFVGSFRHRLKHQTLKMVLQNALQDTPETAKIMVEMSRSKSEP
The experiment in a line: Intracellular Ca2+ release assay (Fura-2), MRGA1-GFP in HEK-Gα15 cells. In kind it is cell-based. Conditions: ligand 1 μM. On the procedure: To identify ligands for the Mrg receptors, selected MrgA genes were tested in a calcium release assay. MrgA genes, including MrgA1 and MrgA4, were cloned into a eukaryotic expression vector and transfected into human embryonic kidney (HEK) 293 cells. HEK-293 cells were obtained from the ATCC and cultured in DMEM supplemented with 10% fetal bovine serum. […]
To increase the sensitivity of the calcium release assay, in some experiments the MRGA-GFP fusion proteins were expressed in HEK 293 cells modified to express Gα15, which couples GPCRs to a signal transduction pathway leading to the release of intracellular free Ca^2+ (Offermann and Simon J Biol Chem 270: 15175-80 (1995)). This calcium release can be monitored ratiometrically using Fura-2 as a fluorescent indicator dye (Tsien et al. Cell Calcium 6: 145-57 (1985)) (FIGS. 11A-C). […]
Briefly, transfected cells were washed once in Hank's balanced salt solution with 11 mM D-glucose and 10 mM HEPES, pH 7.4 (assay buffer) and loaded with 2 μM Fura-2 AM (Molecular Probes) at room temperature for 90 min, with rotation. […] A cooled CCD camera (Photometric) was used in detecting fluorescence. […] Fura-2 fluorescence signals (340 nm, 380 nm and the 340/380 ratio) originating from GFP-positive cells were continuously monitored at 0.4- or 1-second intervals and collected using Axon Imaging Workbench 4.0 software (Axon). […]

Entries after “also recorded” stand apart in the source; their conditions may differ.

As to “CGRP-I: neuropeptide, calcitonin gene-related peptide”, the “Calcium response of MRGA1-expressing cells to ligand” value was “some level of activation; also recorded: strongest responses”.
